# Target: PI3 KINASE (P110B/P85B) (Mus musculus, UniProt Q8BTI9)
# By UniProt entry, the sequences of proteins in these tests, tags left out. Where a name states a change or a piece, a line headed by the entry shows the natural chain unless it says otherwise.
# UniProt Q8BTI9: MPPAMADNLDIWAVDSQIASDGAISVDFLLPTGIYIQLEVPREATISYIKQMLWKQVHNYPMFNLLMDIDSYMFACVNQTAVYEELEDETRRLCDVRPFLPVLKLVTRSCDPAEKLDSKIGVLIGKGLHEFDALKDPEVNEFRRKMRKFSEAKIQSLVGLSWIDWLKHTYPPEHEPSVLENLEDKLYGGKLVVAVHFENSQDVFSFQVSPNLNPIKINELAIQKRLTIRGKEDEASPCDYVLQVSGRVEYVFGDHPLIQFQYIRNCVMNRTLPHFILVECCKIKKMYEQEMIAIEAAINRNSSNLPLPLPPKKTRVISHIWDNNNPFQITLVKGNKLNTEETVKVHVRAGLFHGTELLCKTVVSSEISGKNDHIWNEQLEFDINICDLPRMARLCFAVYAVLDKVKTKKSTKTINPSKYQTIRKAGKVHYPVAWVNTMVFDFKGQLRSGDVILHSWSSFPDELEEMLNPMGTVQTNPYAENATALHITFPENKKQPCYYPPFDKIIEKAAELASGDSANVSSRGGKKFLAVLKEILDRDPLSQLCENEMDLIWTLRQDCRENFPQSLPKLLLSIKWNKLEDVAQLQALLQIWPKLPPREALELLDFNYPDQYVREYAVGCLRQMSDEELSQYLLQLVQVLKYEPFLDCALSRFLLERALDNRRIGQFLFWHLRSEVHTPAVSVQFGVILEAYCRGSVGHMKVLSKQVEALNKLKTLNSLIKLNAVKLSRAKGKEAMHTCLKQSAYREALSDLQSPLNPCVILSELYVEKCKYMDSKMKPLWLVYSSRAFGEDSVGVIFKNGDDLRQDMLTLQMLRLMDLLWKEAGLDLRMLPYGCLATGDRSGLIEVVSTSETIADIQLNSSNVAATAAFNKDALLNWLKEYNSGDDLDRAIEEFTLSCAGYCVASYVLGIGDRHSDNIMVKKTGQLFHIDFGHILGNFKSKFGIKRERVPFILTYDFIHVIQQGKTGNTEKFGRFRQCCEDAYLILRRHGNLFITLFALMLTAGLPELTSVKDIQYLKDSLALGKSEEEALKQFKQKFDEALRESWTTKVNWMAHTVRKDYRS
# Conditions: 1 µM, ATP at Km
smiles,measurement,value
COC1CN(C(=O)c2ccc3c(N)ncc(-c4ccc(-c5cnn(C)c5)cc4)c3c2)C1 [Compound 59],percentage effect,-1%
